Experimental data taken from ChEMBL document CHEMBL5329150, “STING antagonists, synthesized via Povarov-Doebner type multicomponent reaction” (RSC Med Chem, 2023).

Key:
Assay type in all cases: cell-based
[1] = biological target: T1, Stimulator of interferon genes protein (Mus musculus) (UniProt Q3TBT3); assay: Antagonist activity at cGAS-STING pathway in mouse RAW-Blue ISG cells expressing SEAP reporter assessed as reduction in interferon-beta mRNA level preincubated with compound for 6 hrs followed by 2'-3' cGAMP addition and measured after 3 hrs by RT-qPCR analysis; details: filed as antagonist, dose 0.005-1 µM, time 9.0 hrs
T1 sequence (whole entry): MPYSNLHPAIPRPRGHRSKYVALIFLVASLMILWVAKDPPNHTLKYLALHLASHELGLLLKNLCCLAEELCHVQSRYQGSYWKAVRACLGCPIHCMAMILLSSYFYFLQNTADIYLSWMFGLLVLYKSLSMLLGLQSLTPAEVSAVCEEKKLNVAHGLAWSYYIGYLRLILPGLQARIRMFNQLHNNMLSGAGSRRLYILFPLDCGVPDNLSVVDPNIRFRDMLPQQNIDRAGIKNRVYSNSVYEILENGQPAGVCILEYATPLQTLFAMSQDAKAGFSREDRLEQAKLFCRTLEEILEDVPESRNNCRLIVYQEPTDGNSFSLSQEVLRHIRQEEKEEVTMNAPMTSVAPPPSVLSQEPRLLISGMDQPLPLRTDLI

[2] = biological target: T1, Stimulator of interferon genes protein (Mus musculus); assay: Antagonist activity at cGAS-STING pathway in mouse RAW-Blue ISG cells expressing SEAP reporter assessed as reduction in phosphorylated STING level at 5 uM preincubated with compound for 4 hrs followed by 2'-3' cGAMP addition and measured after 3 hrs by Western blot analysis; details: filed as antagonist, time 7.0 hrs
[3] = biological target: T1, Stimulator of interferon genes protein (Mus musculus); assay: Agonist activity at cGAS-STING pathway in mouse RAW-Blue ISG cells expressing SEAP reporter assessed as type 1 interferon production at 0.02 to 1 uM incubated for 24 hrs by QUANTI-Blue colorimetric assay; details: dose 0.02-1 µM
[4] = biological target: T1, Stimulator of interferon genes protein (Mus musculus); assay: Antagonist activity at cGAS-STING pathway in mouse RAW-Blue ISG cells expressing SEAP reporter assessed as reduction in type 1 interferon production preincubated with compound for 2 hrs followed by 2'-3' cGAMP addition and measured after 24 hrs by QUANTI-Blue colorimetric assay; details: filed as antagonist, dose 0.02-1 µM, time 26.0 hrs
[5] = biological target: T1, Stimulator of interferon genes protein (Mus musculus); assay: Antagonist activity at cGAS-STING pathway in mouse RAW-Blue ISG cells expressing SEAP reporter assessed as reduction in phosphorylated IRF3 level at 5 uM preincubated with compound for 4 hrs followed by 2'-3' cGAMP addition and measured after 3 hrs by Western blot analysis; details: filed as antagonist, time 7.0 hrs

c1n[nH]cc1-c1nc2ccc3[nH]ncc3c2c2c1CCCC2
Activity [1]: Dose-Dependent Effect
Activity [2]: Active
Activity [3]: inactive
Activity [4]: Dose-Dependent Effect
Activity [5]: Active

Activity calls are given as the source filed them. The calls are words filed in the database; no cut-off is given here.
